Entries after “also recorded” stand apart in the source; their conditions may differ.
Columns and labels:
trypsin = details: 37°C, up to 24h
ADAM10 = assay: 0.4 µg; details: human, 37°C, up to 24 h

EVHHQKLVFFAEDVGSNK
fragment found (trypsin): Aβ11–16, 3 h; also recorded: Aβ17– 28, 3 h
fragment found (ADAM10): Aβ11–16, 3 h; also recorded: Aβ17–28, 3 h

Reference: PMC3407951 (EMBO Molecular Medicine, 2012)
